This assay deals with T1, EGFR (Tyr845) (Homo sapiens, UniProt P00533).
T1 construct: host or cells: human primary bone marrow mesenchymal stem cells (BMMSCs)
The experiment in a line: EGFR phosphorylation (antibody array, Western blotting). Type of assay: cell-based. The settings on record: pretreatment with AG1478. On the procedure:
Phospho-EGFR (Tyr845) was detected by Western blotting. […] After treatment, cell cycle progression was investigated by flow cytometry with PI staining. Fraction of cells in each phase (G1, S, G2/M) of the cell cycle was evaluated. Cells that expressed EGFR shRNA or shLuc were treated with EpEX for 18 h. After treatment, cell cycle progression was investigated by flow cytometry with PI staining. Fraction of cells in each phase (G1, S, G2/M) of the cell cycle was evaluated. […] The protein expression of cell cycle regulators (cyclin D1, cyclin D2, cyclin E1) and pluripotency factors (Oct4, Sox2, c-Myc, Lin28) was examined by Western blotting. MSCs expressing EGFR shRNA were stimulated by EpEX. After treatment, the protein expression of cell cycle regulators (cyclin D1, cyclin E1, CDK4 and CDK9) and pluripotency factors (Oct4, in Sox2, c-Myc, and Lin 28) was examined by Western blotting. […] After treatment, the gene expression of pluripotency factors (Oct4, Sox2, c-Myc, Lin28 and EpCAM) was examined by qPCR.
FIG. 8. EpEX and EGF induce the phosphorylation of EGFR and STAT3. MSCs were pretreated with or without an EGFR inhibitor, AG1478, and followed by the treatment with either EGF, EpEX, or co-treated with EGF and EpEX at indicated time. The phosphorylation of EGFR (Tyr845) and STAT3 (Tyr705) were examined by Western blotting with specific antibodies. […]

Take `COc1cc2ncnc(Nc3cccc(Cl)c3)c2cc1OC` [AG1478, reference compound]: the “effect on activation of EGFR by either EGF or EpEX” value is reported as “can attenuate”.

The values above are taken from US20260125649A1, “MEDIUM COMPOSITION AND METHOD FOR CULTURING MESENCHYMAL STEM CELLS” (ACADEMIA SINICA, priority 2018, published 2026).
